The values below come from patent publication US8735395B2, “Protease inhibitors” (Medivir AB, priority 2008, dated 2014).

Sequences of proteins named here, by UniProt entry; tags and fusion partners are left off. Residues count along the entry.
UniProt P25774, 115-331: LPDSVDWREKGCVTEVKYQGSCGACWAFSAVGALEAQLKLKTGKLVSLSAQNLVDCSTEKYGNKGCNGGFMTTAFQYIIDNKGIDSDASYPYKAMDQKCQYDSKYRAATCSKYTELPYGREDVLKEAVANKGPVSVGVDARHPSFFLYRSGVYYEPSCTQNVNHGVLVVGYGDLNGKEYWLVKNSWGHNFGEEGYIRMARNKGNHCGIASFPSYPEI
UniProt P07711, 114-333: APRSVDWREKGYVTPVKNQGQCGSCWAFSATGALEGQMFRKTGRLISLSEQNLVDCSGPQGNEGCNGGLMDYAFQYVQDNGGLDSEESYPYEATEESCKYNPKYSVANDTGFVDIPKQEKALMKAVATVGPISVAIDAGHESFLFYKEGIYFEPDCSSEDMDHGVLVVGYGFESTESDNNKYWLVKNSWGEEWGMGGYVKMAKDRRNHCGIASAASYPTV
UniProt P43235, 115-329: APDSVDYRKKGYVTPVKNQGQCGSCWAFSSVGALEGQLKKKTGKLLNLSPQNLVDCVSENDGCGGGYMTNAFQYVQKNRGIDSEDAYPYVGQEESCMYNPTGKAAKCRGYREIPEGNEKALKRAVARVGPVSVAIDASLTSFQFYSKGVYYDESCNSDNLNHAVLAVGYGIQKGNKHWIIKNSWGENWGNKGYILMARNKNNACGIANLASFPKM

A value given as a limit tells only on which side of the number the result lay.

What all share (type): biochemical
One assay deals with human cathepsin S (Homo sapiens (Human), UniProt P25774). Description: Cathepsin S Ki determination. The protocol: Cathepsin S Ki Determination […] 280 μl/well of 12.5% DMSO are added to rows B-H of two columns of a 96 deep well polypropylene plate. 70 μl/well of substrate is added to row A. 2×250 μl/well of assay buffer (100 mM Na phosphate, 100 mM NaCl, pH 6.5) is added to row A, mixed, and double diluted down the plate to row H. 100 μl/well of assay buffer is added to columns 2-5 and 7-12 of 4 rows of a 96 well V bottom polypropylene plate. 200 μl/well of assay buffer is added to columns 1 and 6. The first test compound prepared in DMSO is added to column 1 of the top row, typically at a volume to provide between 10 and 30 times the initially determined rough K. […] Mix row A using a multichannel pipette and double dilute to row G. Mix row H and read in the fluorescent spectrophotometer. […] The second test compound is added to column 6 of the top row, the third to column 1 of the second row etc. Add 1 μl of comparator to column 6 of the bottom row. Mix column 1 and double dilute to column 5. Mix column 6 and double dilute to column 10. Using an 8-channel multistepping pipette set to 5×10 μl, distribute 10 μl/well of substrate to the 384 well assay plate. Distribute the first column of the substrate dilution plate to all columns of the assay plate starting at row A. The tip spacing of the multichannel pipette will correctly skip alternate rows. Distribute the second column to all columns starting at row B. Using a 12-channel multistepping pipette set to 4×10 μl, distribute 10 μl/well of inhibitor to the 384 well assay plate. Distribute the first row of the inhibitor dilution plate to alternate rows of the assay plate starting at A1. […] Using the a distributor such as a Multidrop 384, add 30 μl/well to all wells of the assay plate and read in fluorescent spectrophotomoter such as an Ascent. Fluorescent readings, (excitation and emission wavelengths 390 nm and 460 nm respectively, set using bandpass filters) reflecting the extent of enzyme cleavage of the fluorescent substrate, notwithstanding the inhibitor, are linear rate fitted for each well. […]

Another assay has as its target human cathepsin L (Homo sapiens (Human), UniProt P07711). The experiment in a line: Cathepsin L Ki. The settings on record: Test 2 or unnumbered test. The protocol:
The procedure above with the following amendments is used for the determination of Ki for cathepsin L.
The enzyme is commercially available human cathepsin L (for example Calbiochem). The substrate is H-D-Val-Leu-Lys-AMC available from Bahcem. The assay buffer is 100 mM sodium acetate 1 mM EDTA, pH5.5) The DMSO stock (10 mM in 100% DMSO) is diluted to 10% in assay buffer. Enzyme is prepared at 5 nM concentration in assay buffer plus 1 mM dithiothreitol just before use. 2 ul of 10 mM inhibitor made up in 100% DMSO is dispensed into row A. 10 μl of 50 μM substrate (=1/200 dilution of 10 mM stock in DMSO, diluted in assay buffer)
Potential inhibitors are screened using the above assay with variable concentrations of test compound. Reactions were initiated by addition of enzyme to buffered solutions of substrate and inhibitor. Ki values were calculated according to equation 1.

The target of assay [1] is human recombinant cathepsin K (Homo sapiens (Human), UniProt P43235). Description: Determination of cathepsin K proteolytic catalytic activity (Ki). The settings on record: Test 2 or unnumbered test. The protocol:
Determination of Cathepsin K Proteolytic Catalytic Activity
Convenient assays for cathepsin K are carried out using human recombinant enzyme, such as that described in PDB.
The recombinant cathepsin K can be expressed in a variety of commercially available expression systems including E coli, Pichia and Baculovirus systems. The purified enzyme is activated by removal of the prosequence by conventional methods.
Standard assay conditions for the determination of kinetic constants used a fluorogenic peptide substrate, typically H-D-Ala-Leu-Lys-AMC, and were determined in either 100 mM Mes/Tris, pH 7.0 containing 1 mM EDTA and 10 mM 2-mercaptoethanol or 100 mM Na phosphate, imM EDTA, 0.1% PEG4000 pH 6.5 or 100 mM Na acetate, pH 5.5 containing 5 mM EDTA and 20 mM cysteine, in each case optionally with 1M DTT as stabiliser. The enzyme concentration used was 5 nM. The stock substrate solution was prepared at 10 mM in DMSO. Screens were carried out at a fixed substrate concentration of 60 μM and detailed kinetic studies with doubling dilutions of substrate from 250 μM. […] Product fluorescence (excitation at 390 nm, emission at 460 nm) was monitored with a Labsystems Fluoroskan Ascent fluorescent plate reader. […]
Potential inhibitors are screened using the above assay with variable concentrations of test compound. […] Ki values were calculated according to equation 1. […]

As for `C#C[C@@H]1CN(C(=O)[C@H](CC(C)C)NC(=O)c2ccc(-c3csc(N4CCN(C)CC4)n3)c(F)c2)[C@@H]2C(=O)CO[C@H]12` [Example 3, N-[1-6-(ethynyl-3-oxo-hexahydro-furo[3,2-b]pyrrole-4-carbonyl)-3-methyl-butyl]-3-fluoro-4-[2-(4-methyl-piperazin-1-yl)thiazol-4-yl]-benzamide], the Ki at human cathepsin S (Test 1, class symbols) is above 10 µM; on human cathepsin S (Test 2 or unnumbered test), 22 µM.
As for `CC(C)=C[C@@H]1CN(C(=O)[C@H](CC(C)C)NC(=O)c2ccc(-c3nc(N4CCN(C)CC4)sc3F)cc2)[C@@H]2C(=O)CO[C@H]12` [Example 4, N-[1-6-(dimethylvinyl-3-oxo-hexahydro-furo[3,2-b]pyrrole-4-carbonyl)-3-methyl-butyl]-4-[5-fluoro-2-(4-methyl-piperazin-1-yl)thiazol-4-yl]-benzamide], the Ki on human cathepsin S (Test 2 or unnumbered test) was 14.5 µM.
Compound `C#C[C@@H]1CN(C(=O)[C@@H](NC(=O)c2ccc(-c3nc(N4CCN(C)CC4)sc3F)cc2)C2CCCC2)[C@@H]2C(=O)CO[C@H]12` [Example 5, N-[1-(6-ethynyl-3-oxo-hexahydro-furo[3,2-b]pyrrol-4-yl)-1-cyclopentyl-2-oxo-ethyl]-4-[5-fluoro-2-(4-methyl-piperazin-1-yl)-thiazol-4-yl]-benzamide] gave a Ki on human cathepsin L of 1.17 µM.
In the case of `CC(C)C[C@H](NC(=O)c1ccc(-c2csc(N3CCN(C)CC3)n2)cc1)C(=O)N1C[C@@H](C=C(Br)Br)[C@H]2OCC(=O)[C@H]21` [Ref Ex 9], the inhibition constant (Ki) in assay [1] came to 0.0026 µM.

Broadly, the Ki is a dissociation constant, usually derived from enzyme kinetics or from competition with a known ligand.
